Measurements from the NIST ThermoML archive (doi:10.1021/je800152d).
Numbers after ± are expanded uncertainties.

Assay: cn = amount concentration of the nth substance listed, in mol/dm3
Conditions: 298.15 K, 101 kPa, Liquid, Direct current cell with electrodes

CCC[N+](CCC)(CCC)CCC.O=S(=O)([N-]S(=O)(=O)C(F)(F)F)C(F)(F)F [tetrapropylammonium bis[(trifluoromethyl)sulfonyl]imide] + ClCCl
Conditions	molar conductivity [S·m2/mol]
c1 = 2.208e-05	0.008542 ± 3.4e-05
c1 = 4.726e-05	0.007477 ± 3e-05
c1 = 8.42e-05	0.006476 ± 2.6e-05
c1 = 0.0001183	0.005862 ± 2.3e-05
c1 = 0.0001551	0.005415 ± 2.2e-05
c1 = 0.0002027	0.00498 ± 2e-05
c1 = 0.000241	0.004713 ± 1.9e-05
c1 = 0.0002936	0.004414 ± 1.8e-05
c1 = 0.0003524	0.004144 ± 1.7e-05
c1 = 0.0004038	0.003971 ± 1.6e-05
